Assay: Release from 50:50 ELVAX:poly-l-lactic acid microspheres
Assay type: physicochemical
Conditions: 18 hours of tumbling at 37° C.
Procedure: Microspheres are then prepared in a dissolution machine (Six-spindle dissolution tester, VanderKanp, Van Kell Industries Inc., U.S.A.) in triplicate at 200 rpm, 42° C., for 3 hours. Microspheres so prepared are washed twice in water and sized on the microscope.

## baccatin
  % of the total drug released from the microspheres (fluorescence assay): 60%
  % of the total drug released from the microspheres (uv/vis assay): 55%
